The subject of experiment [1] is Bb.Ste2. The class given is cell-based, Beauveria bassiana.
Experiment [2] relates to Bc.Ste2. The class given is cell-based, Botrytis cinerea.
In experiment [3] the target is T1, Sc Ste2 (Saccharomyces cerevisiae, UniProt D6VTK4).
T1 construct: The native Sc system and an empty construct were added as positive and negative controls; endogenous in cells; host or cells: Saccharomyces cerevisiae wild-type control strains GEN18 (MATa) and GEN27 (MATα)
T1 sequence (D6VTK4 1-431): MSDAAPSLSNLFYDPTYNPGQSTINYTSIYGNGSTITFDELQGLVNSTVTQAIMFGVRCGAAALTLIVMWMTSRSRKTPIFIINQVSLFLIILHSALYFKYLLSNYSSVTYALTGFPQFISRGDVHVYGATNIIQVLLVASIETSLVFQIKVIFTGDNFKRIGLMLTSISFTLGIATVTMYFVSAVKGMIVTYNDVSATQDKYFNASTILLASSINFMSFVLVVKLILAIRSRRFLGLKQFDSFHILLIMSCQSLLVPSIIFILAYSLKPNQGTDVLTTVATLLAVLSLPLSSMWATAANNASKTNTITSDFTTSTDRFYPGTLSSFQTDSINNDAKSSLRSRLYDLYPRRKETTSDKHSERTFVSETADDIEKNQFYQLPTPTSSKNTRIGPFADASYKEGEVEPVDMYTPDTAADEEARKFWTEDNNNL
The format is cell-based.

Experiment [4] deals with Fg.Ste2. The format is cell-based, Fusarium graminearum. Particulars: for Diploid frequency (%): 20 h coculture; for diploid frequency (%) / average (diploid colonies): GPCR strain GEN37 HIS; for average (diploid colonies): dilution 500, mean of Rep1-3.

Where two headings read alike, the source gives them in different places.

For `CSCC[C@H](NC(=O)[C@H](CS)NC(=O)[C@@H](N)Cc1c[nH]c2ccccc12)C(=O)N[C@@H](CCCNC(=N)N)C(=O)N1CCC[C@H]1C(=O)NCC(=O)N[C@@H](CCC(N)=O)C(=O)N1CCC[C@H]1C(=O)N[C@@H](CS)C(=O)N[C@@H](Cc1c[nH]c2ccccc12)C(=O)O` [Bb], the “Fold change yEGFP” value in experiment [1] was 194; in experiment [2], 24. In experiment [1], this compound had a logEC50 of -9.649. In addition, the “Sup.Fig.3B Bb.Ste2 biosensor response, group mean” value in experiment [1] (0.0005 μM) came to 1097500. The EC50 in experiment [1] (read-out: half-maximal effective concentration (EC50)) worked out at 0.245 nM. The “Diploid frequency (%)” value was 0.0% in experiment [3]; 0.0% in experiment [4] (Fig. 1D mating matrix, pheromone secreted by MATa strain, GPCR in MATα strain, deep well plate, three technical plating replicates); 0.1% in experiment [4] (Fig. 1F validation in culture tubes, secreted pheromone, three biological and three technical replicates). Besides, the “diploid frequency (%)” value in experiment [4] (co-culture replicate 1) is recorded as 0.16%; in experiment [4] (co-culture replicate 2) it was 0.08%; in experiment [4] (co-culture replicate 3), 0%. The “average (diploid colonies)” value amounted to 0.67 in experiment [4] (co-culture replicate 1), 0.33 in experiment [4] (co-culture replicate 2) and 0 in experiment [4] (co-culture replicate 3).

The values above are taken from publication PMC12582325 (Proceedings of the National Academy of Sciences of the …, 2025).
